{"source": "paper PMC5353780", "about": "“A novel benzo-heterocyclic amine derivative N30 inhibits influenza virus replication by depression of Inosine-5’-Monophospate Dehydrogenase activity” (Virology Journal, 2017)", "key": {"[1]": {"tested_on": "A/wuhan/359/1995", "assay": "CPE assay in MDCK cells", "assay_type": "cell-based, Influenza A virus (H3N2)"}, "[2]": {"tested_on": "CVB4 (strain J.V.B.)", "assay": "CPE assay", "assay_type": "cell-based, Coxsackie virus B"}, "[3]": {"tested_on": "BV/shenzhen/155/2005", "assay": "CPE assay in MDCK cells", "assay_type": "cell-based, influenza B virus"}, "[4]": {"tested_on": "CVB1 (strain Conn-5)", "assay": "CPE assay", "assay_type": "cell-based, Coxsackie virus B"}, "[5]": {"tested_on": "CVB2 (strain Ohio-1)", "assay": "CPE assay", "assay_type": "cell-based, Coxsackie virus B"}, "[6]": {"tested_on": "CVB6 (strain Schmitt)", "assay": "CPE assay", "assay_type": "cell-based, Coxsackie virus B"}, "[7]": {"tested_on": "A/FortMonmouth/1/1947", "assay": "CPE assay in MDCK cells", "assay_type": "cell-based, Influenza A virus (H1N1)"}, "[8]": {"tested_on": "CVB5 (strain Faulkner)", "assay": "CPE assay", "assay_type": "cell-based, Coxsackie virus B"}, "[9]": {"tested_on": "CVB3 (strain Nancy)", "assay": "CPE assay", "assay_type": "cell-based, Coxsackie virus B"}, "[10]": {"tested_on": "BY/fujianxinluo/54/2006", "assay": "CPE assay in MDCK cells", "assay_type": "cell-based, influenza B virus"}}}
{"molecule": "NC(=O)c1ncn([C@@H]2O[C@H](CO)[C@@H](O)[C@H]2O)n1", "note": "[RBV, Ribavirin]", "values": [{"measurement": "SI", "setting": "[1]", "result": ">24.30"}, {"measurement": "SI", "setting": "[2]", "result": ">8.10"}, {"measurement": "SI", "setting": "[3]", "result": ">117.65"}, {"measurement": "SI", "setting": "[4]", "result": ">8.44"}, {"measurement": "SI", "setting": "[5]", "result": ">8.81"}, {"measurement": "SI", "setting": "[6]", "result": ">4.39"}, {"measurement": "SI", "setting": "[7]", "result": ">121.95"}, {"measurement": "SI", "setting": "[8]", "result": ">16.67"}, {"measurement": "SI", "setting": "[9]", "result": ">6.39"}, {"measurement": "SI", "setting": "[10]", "result": ">80.65"}]}
